Test results from patent publication US20260382772A1, “KETO-AMIDE-BASED FIBROBLAST ACTIVATION PROTEIN-TARGETED LIGAND LINKED TO AN IMAGING OR THERAPEUTIC AGENT, COMPOSITIONS, AND METHODS OF USE” (published 2026).

Test system: 4T1 tumor bearing mice
Experiment: Dosimetry analysis using OLINDA software, 4T1 tumor
Conditions: ^177Lu
Description: From the ex vivo biodistribution data obtained from the ^111In/^177Lu-FAP8-PEG3-IP-DOTA in 4T1 and HEK-FAP tumor bearing mice, the total absorbed radiation dose coefficients (mGy/MBq were calculated using OLINDA 2.2.3 software (Tables 9-12).
FIGS. 36A and 36B show comparison data related to the total absorbed dose coefficient in selected organs (blood, heart, lungs, liver, spleen, kidney's bone marrow, and tumor). Dose estimates for healthy organs such as blood, heart, lungs, liver, spleen, kidneys, and bone marrow were calculated assuming a 25 g mouse phantom, whereas for tumor dose estimates were calculated with the sphere model. Time-activity curves were fitted to the biodistribution data of each organ individually with exponential functions.

COc1ccc(CNC(=O)C(=O)[C@@H]2CC(F)(F)CN2C(=O)CNC(=O)c2ccnc3ccc(OCC(=O)NCCOCCOCCOCCNC(=O)[C@H](CCCCNC(=O)CCCc4ccc(I)cc4)NC(=O)CN4CCN(CC(=O)O)CCN(CC(=O)O)CCN(CC(=O)O)CC4)cc23)cc1OC.[Lu+3]
Kinetics value, Blood (0.3 nmol/mouse): 4.48E−1 MBq-hr/MBq
Kinetics value, Bone Marrow (0.3 nmol/mouse): 8.84E−02 MBq-hr/MBq
Kinetics value, Heart (0.3 nmol/mouse): 5.62E−01 MBq-hr/MBq
Kinetics value, Intestines (0.3 nmol/mouse): 1.76E−1 MBq-hr/MBq
Kinetics value, Kidneys (0.3 nmol/mouse): 1.22E0 MBq-hr/MBq
Kinetics value, Liver (0.3 nmol/mouse): 5.77E0 MBq-hr/MBq
Kinetics value, Lung (0.3 nmol/mouse): 9.69E−1 MBq-hr/MBq
Kinetics value, Spleen (0.3 nmol/mouse): 9.20E+0 MBq-hr/MBq
Kinetics value, Stomach (0.3 nmol/mouse): 1.81E−1 MBq-hr/MBq
Kinetics value, Tumor (0.3 nmol/mouse): 9.500E02 MBq-hr/MBq
Organ doses, Blood (0.3 nmol/mouse): 2.38E02 mGy/MBq
Organ doses, Bone Marrow (0.3 nmol/mouse): 3.382E02 mGy/MBq
Organ doses, Heart (0.3 nmol/mouse): 4.14E02 mGy/MBq
Organ doses, Intestines (0.3 nmol/mouse): 9.23E01 mGy/MBq
Organ doses, Kidneys (0.3 nmol/mouse): 3.57E02 mGy/MBq
Organ doses, Liver (0.3 nmol/mouse): 5.67E02 mGy/MBq
Organ doses, Lung (0.3 nmol/mouse): 2.84E02 mGy/MBq
Organ doses, Spleen (0.3 nmol/mouse): 1.46E03 mGy/MBq
Organ doses, Stomach (0.3 nmol/mouse): 8.58E01 mGy/MBq
Organ doses, Tumor (0.3 nmol/mouse): 9.04E02 mGy/MBq
Kinetics value, Blood (1.0 nmol/mouse): 5.84E−1 MBq-hr/MBq
Kinetics value, Bone Marrow (1.0 nmol/mouse): 3.5E−02 MBq-hr/MBq
Kinetics value, Heart (1.0 nmol/mouse): 2.39E−1 MBq-hr/MBq
Kinetics value, Intestines (1.0 nmol/mouse): 2.22E−1 MBq-hr/MBq
Kinetics value, Kidneys (1.0 nmol/mouse): 9.99E−01 MBq-hr/MBq
Kinetics value, Liver (1.0 nmol/mouse): 8.19E0 MBq-hr/MBq
Kinetics value, Lung (1.0 nmol/mouse): 5.16E−1 MBq-hr/MBq
Kinetics value, Spleen (1.0 nmol/mouse): 3.23E+0 MBq-hr/MBq
Kinetics value, Stomach (1.0 nmol/mouse): 2.08E−1 MBq-hr/MBq
Kinetics value, Tumor (1.0 nmol/mouse): 8.95E0 MBq-hr/MBq
Organ doses, Blood (1.0 nmol/mouse): 2.95E02 mGy/MBq
Organ doses, Bone Marrow (1.0 nmol/mouse): 1.14E02 mGy/MBq
Organ doses, Heart (1.0 nmol/mouse): 1.76E02 mGy/MBq
Organ doses, Intestines (1.0 nmol/mouse): 1.46E02 mGy/MBq
Organ doses, Kidneys (1.0 nmol/mouse): 2.94E02 mGy/MBq
Organ doses, Liver (1.0 nmol/mouse): 8.90E02 mGy/MBq
Organ doses, Lung (1.0 nmol/mouse): 1.36E02 mGy/MBq
Organ doses, Spleen (1.0 nmol/mouse): 4.13E02 mGy/MBq
Organ doses, Stomach (1.0 nmol/mouse): 6.44E−03 mGy/MBq
Organ doses, Tumor (1.0 nmol/mouse): 9.94E02 mGy/MBq
Kinetics value, Blood (5 nmol/mouse): 3.27E−01 MBq-h/MBq
Kinetics value, Bone Marrow (5 nmol/mouse): 1.99E−02 MBq-h/MBq
Kinetics value, Heart (5 nmol/mouse): 6.34E−002 MBq-h/MBq
Kinetics value, Intestines (5 nmol/mouse): 1.83E−1 MBq-h/MBq
Kinetics value, Kidneys (5 nmol/mouse): 8.89E−01 MBq-h/MBq
Kinetics value, Liver (5 nmol/mouse): 3.55E0 MBq-h/MBq
Kinetics value, Lung (5 nmol/mouse): 2.93E−01 MBq-h/MBq
Kinetics value, Spleen (5 nmol/mouse): 7.30E−1 MBq-h/MBq
Kinetics value, Stomach (5 nmol/mouse): 1.38E−1 MBq-h/MBq
Kinetics value, Tumor (5 nmol/mouse): 6.43E0 MBq-h/MBq
Organ doses, Blood (5 nmol/mouse): 3.49E02 mGy/MBq
Organ doses, Bone Marrow (5 nmol/mouse): 4.81E01 mGy/MBq
Organ doses, Heart (5 nmol/mouse): 4.55E01 mGy/MBq
Organ doses, Intestines (5 nmol/mouse): 9.04E01 mGy/MBq
Organ doses, Kidneys (5 nmol/mouse): 2.43E02 mGy/MBq
Organ doses, Liver (5 nmol/mouse): 2.70E02 mGy/MBq
Organ doses, Lung (5 nmol/mouse): 8.15E01 mGy/MBq
Organ doses, Spleen (5 nmol/mouse): 1.10E02 mGy/MBq
Organ doses, Stomach (5 nmol/mouse): 4.27E−03 mGy/MBq
Organ doses, Tumor (5 nmol/mouse): 1.14E03 mGy/MBq
